According to article PMC5240653 (mAbs, 2016):

Target: hen egg white lysozyme (Gallus gallus (hen), UniProt P00698)
Assay: SPR

Kd: 25 pM | koff: 0.00023 s⁻¹ | kon: 9.5e+06 M⁻¹ s⁻¹
B1: HyHEL-5 (antibody, V domains shown)
VH: EVQLQQSGAELMKPGASVKISCKASGYTFSDYWIEWVKQRPGHGLEWIGEILPGSGSTNYHERFKGKATFTADTSSSTAYMQLNSLTSEDSGVYYCLHGNYDFDGWGQGTTLTVSS
VL: DIVLTQSPAIMSASPGEKVTMTCSASSSVNYMYWYQQKSGTSPKRWIYDTSKLASGVPVRFSGSGSGTSYSLTISSMETEDAATYYCQQWGRNPTFGGGTKLEIK
